In the test the test system is histamine. The test can be described thus: antagonistic activity against histamine on ileum of guinea pigs.

`Cn1c(=O)c2[nH]cnc2n(C)c1=O` [theophylline, reference compound] showed an inhibition against histamine (50 μg/ml. antagonistic dose) of 18%. For the same molecule, the “maximum inhibition (histamine)” value (in a dose of 200 μg/ml.) was 37%.

The values above are taken from patent USRE32519E, “Sulfur-containing isoquinoline derivatives, process for the preparation thereof and pharmaceutical compositions containing them” (Chinoin Gyogyszer es Vegyeszeti Termekek Gyara, priority 1979, dated 1987).
